Tested on: UC-1 cultures
Test: Screen of candidate formulations for operational toxicity to UC-1 cultures
Conditions: concentrated formulation

Spinosad was tested, and the “Operational toxicity to UC-1 cultures (live protists remain viable and actively moving)” value was “satisfied all criteria”.
